Test results: article PMC7723054
This is one part of the list.

T1: LIN28A (human?, UniProt Q9H9Z2 1-209)
T1 sequence: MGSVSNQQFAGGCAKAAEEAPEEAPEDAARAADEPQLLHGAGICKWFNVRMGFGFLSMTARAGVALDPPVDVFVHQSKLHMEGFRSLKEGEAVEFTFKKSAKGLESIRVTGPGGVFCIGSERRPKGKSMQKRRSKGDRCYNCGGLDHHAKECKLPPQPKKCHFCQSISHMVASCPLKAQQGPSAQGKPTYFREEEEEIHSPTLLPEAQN

T2: CIRBP (Homo sapiens, UniProt Q14011 1-172)
T2 sequence: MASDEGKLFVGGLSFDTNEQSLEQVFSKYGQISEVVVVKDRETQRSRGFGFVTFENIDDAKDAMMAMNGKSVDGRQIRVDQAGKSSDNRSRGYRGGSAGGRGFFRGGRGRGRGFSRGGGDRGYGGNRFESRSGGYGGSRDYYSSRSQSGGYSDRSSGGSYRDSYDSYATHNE

T3: DHX36 (Homo sapiens, UniProt Q9H2U1 1-1008)
T3 sequence: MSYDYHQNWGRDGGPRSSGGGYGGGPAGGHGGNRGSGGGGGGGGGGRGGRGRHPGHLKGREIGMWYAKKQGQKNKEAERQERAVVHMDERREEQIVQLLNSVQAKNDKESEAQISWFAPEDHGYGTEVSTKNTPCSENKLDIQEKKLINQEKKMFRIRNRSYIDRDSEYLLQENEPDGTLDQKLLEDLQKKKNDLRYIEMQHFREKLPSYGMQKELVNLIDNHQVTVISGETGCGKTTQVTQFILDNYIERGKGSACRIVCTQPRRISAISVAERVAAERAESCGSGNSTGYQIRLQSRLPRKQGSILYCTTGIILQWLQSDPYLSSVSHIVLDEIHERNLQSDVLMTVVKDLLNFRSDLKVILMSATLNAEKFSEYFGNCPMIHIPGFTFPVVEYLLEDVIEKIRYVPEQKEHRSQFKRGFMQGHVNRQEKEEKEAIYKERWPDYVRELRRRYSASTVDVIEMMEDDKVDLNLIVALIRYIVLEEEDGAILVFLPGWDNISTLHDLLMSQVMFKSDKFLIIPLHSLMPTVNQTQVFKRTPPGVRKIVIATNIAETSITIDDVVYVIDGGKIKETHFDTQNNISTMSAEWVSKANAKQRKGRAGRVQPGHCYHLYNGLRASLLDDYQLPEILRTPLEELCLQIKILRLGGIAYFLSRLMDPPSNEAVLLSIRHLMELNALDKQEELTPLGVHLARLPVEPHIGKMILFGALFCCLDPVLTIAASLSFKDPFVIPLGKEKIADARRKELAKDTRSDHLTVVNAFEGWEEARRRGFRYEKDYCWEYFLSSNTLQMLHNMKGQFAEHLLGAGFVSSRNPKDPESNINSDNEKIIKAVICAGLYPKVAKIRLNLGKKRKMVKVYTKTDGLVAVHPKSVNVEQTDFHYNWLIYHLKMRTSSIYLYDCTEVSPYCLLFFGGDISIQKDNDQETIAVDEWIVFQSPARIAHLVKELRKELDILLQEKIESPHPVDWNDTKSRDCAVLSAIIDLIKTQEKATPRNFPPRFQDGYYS

B1: hsa-mir-891a (structured_RNA)
RNA: GGGACAAGCUGUCUAACCUGGACACUGAGGUGUACGAAGUUUCAGCCACUGAUUCAGUAAAAUACUCAGUGGCUGAAGCUUCGUGCAC
B2: PARIS_ID46 (structured_RNA)
RNA: GGGAAGGCAAAUCUCUGAUUCGUCCUGCGGUGUACGAAGUUUCAGCGUAGGUGUCUUCACCUGCGCUGAAGCUUCGUGCAC
B3: hsa-mir-7705 (structured_RNA)
RNA: GGGAACGAGCGUCACAUCGUAAUCGAUUGGUGUACGAAGUUUCAGCUCUGUUUUAAGUAACAGAGCUGAAGCUUCGUGCAC
B4: hsa-mir-605 (structured_RNA)
RNA: GGGAACCAACUGGAAAUCUCUGCCUAAUGGUGUACGAAGUUUCAGCUUCUCCUUGGGAAAAACAGAGAAGCUGAAGCUUCGUGCAC
B5: hsa-mir-4477b (structured_RNA)
RNA: GGGAACGUUCUUCAGGCGCGGGUAAUUCGGUGUACGAAGUUUCAGCUAAUAGCAAUCCUUAAAUGCCAUUAGCUGAAGCUUCGUGCAC
B6: hsa-mir-892b (structured_RNA)
RNA: GGGAAGGGUCGAACUAGUUUCAUCAAACGGUGUACGAAGUUUCAGCGUAGAUUUUAUGUCACGCUGAAGCUUCGUGCAC
B7: hsa-mir-1273e (structured_RNA)
RNA: GGGAAAGACGACGCUGGUUGUGACCUUCGGUGUACGAAGUUUCAGCUGGAGGCUGCAGUGAGCCGAGAUCGAGCCACUGUACUCCAGCUGAAGCUUCGUGCAC
B8: hsa-mir-5590 (structured_RNA)
RNA: GGGAAUCCGGCCCAAGAUCAUUUCGCUAGGUGUACGAAGUUUCAGCUAUUGUGUUGAUCAACAAUAGCUGAAGCUUCGUGCAC
B9: hsa-mir-659 (structured_RNA)
RNA: GGGAAGGAUACUUGGGCAGUGAUCUAUAGGUGUACGAAGUUUCAGCCAAGGAAGAGUCACAGUCUCUUCCUUGGCUGAAGCUUCGUGCAC
B10: hsa-mir-4469 (structured_RNA)
RNA: GGGACGAGUCACCCCUGAGUCCUUGUUCGGUGUACGAAGUUUCAGCUGGCGGCGGCGAGGACACCGCCGCUGCUGAAGCUUCGUGCAC
B11: hsa-mir-3196 (structured_RNA)
RNA: GGGAGACAGGUGUCUUAAGGACUAGGUGGGUGUACGAAGUUUCAGCCCUCCCCCAGUGCCAGGGCUGAAGCUUCGUGCAC
B12: hsa-mir-6781 (structured_RNA)
RNA: GGGAGCUGAUAGCCCUGGUUUCAUAAAGGGUGUACGAAGUUUCAGCGCGUCGCUUCUCCCUAAUGUUGCCGCUGAAGCUUCGUGCAC
B13: hsa-mir-339 (structured_RNA)
RNA: GGGAAAGCGAGCCAUCGACGUUAUAACCGGUGUACGAAGUUUCAGCCUCACGUGUGCCUGCCUGUGAGGCUGAAGCUUCGUGCAC

These binders were tested against T1, LIN28A (assay: FOREST: bead pull-down of RNA structure library v1, barcode microarray; U1A/LIN28A: 20 mM HEPES pH 7.5, 80 mM KCl, 20 mM NaCl, 10% glycerol, 2 mM DTT, 0.1 ug/uL BSA, 4 C; BG4/CIRBP/DHX36: 10 mM Tris-HCl pH 7.5, 100 mM KCl (or LiCl),; high values mean tight binding).

Binder	binding signal [z-score]
B1	-0.278
B2	-0.665 ± 0.523
B3	-0.297
B4	-0.299
B5	-0.276
B6	-0.313
B7	-0.326
B8	-0.289
B9	-0.312
B10	-0.277
B11	-0.325
B12	-0.292
B13	-0.312

Each binder was assayed against T2, CIRBP in the same assay as above.

Binder	binding signal [z-score]
B1	-0.941
B2	0.11 ± 0.948
B3	0.759
B4	0.707
B5	0.823
B6	0.0261
B7	0.471
B8	-0.357
B9	0.374
B10	0.447
B11	0.515
B12	-0.0946
B13	-0.395

What follows are binders tested against T3, DHX36 in the same assay as above.

Binder	binding signal [z-score]
B1	0.0953
B2	-0.242 ± 0.367
B3	0.444
B4	0.544
B5	-0.16
B6	-0.0424
B7	0.0165
B8	-1.2
B9	-0.344
B10	0.588
B11	0.314
B12	-0.0935
B13	-0.719
